According to patent US20200268901A1 (Bristol-Myers Squibb, published 2020):

T1: human GITR on cells (activated human T cells; 3A9-hGITR cells) (human, UniProt Q9Y5U5 26-241)
T1 sequence (looked up): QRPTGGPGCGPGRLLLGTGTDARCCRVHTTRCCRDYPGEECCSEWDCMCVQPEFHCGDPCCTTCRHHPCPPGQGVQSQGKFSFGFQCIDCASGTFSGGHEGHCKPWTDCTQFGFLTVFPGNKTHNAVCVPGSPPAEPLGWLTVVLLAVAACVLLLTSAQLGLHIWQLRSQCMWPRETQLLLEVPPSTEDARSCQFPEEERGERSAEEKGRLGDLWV


Molecular target: T1, human GITR on cells (activated human T …)
Test: cell-based or functional assay

Row | Binder | EC50 (nM), phospho-p65 NFkB signaling, CD4+ T cells | EC50 (nM), phospho-p65 NFkB signaling, CD8+ T cells | Emax (%), phospho-p65 NFkB signaling, CD4+ T cells | Emax (%), phospho-p65 NFkB signaling, CD8+ T cells
1 | anti-GITR-IgG2-IgG1 (antibody) heavy: QVQLVESGGGVVQPGRSLRLSCAASGFTFSSYGMHWVRQAPGKGLEWVAVIWYEGSNKYYADSVKGRFTISRDNSKNTLYLQMNSLRAEDTAVYYCARGGSMVRGDYYYGMDVWGQGTTVTVSSASTKGPSVFPLAPCSRSTSESTAALGCLVKDYFPEPVTVSWNSGALTSGVHTFPAVLQSSGLYSLSSVVTVPSSNFGTQTYTCNVDHKPSNTKVDKTVERKCCVE[human IgG1 Fc not written out] light: AIQLTQSPSSLSASVGDRVTITCRASQGISSALAWYQQKPGKAPKLLIYDASSLESGVPSRFSGSGSGTDFTLTISSLQPEDFATYYCQQFNSYPYTFGQGTKLEIKRTVAAPSVFIFPPSDEQLKSGTASVVCLLNNFYPREAKVQWKVDNALQSGNSQESVTEQDSKDSTYSLSSTLTLSKADYEKHKVYACEVTHQGLSSPVTKSFNRGEC | 9 nM | 3.77 nM | 100% | 92%
2 | anti-GITR-IgG1 (antibody) heavy: QVQLVESGGGVVQPGRSLRLSCAASGFTFSSYGMHWVRQAPGKGLEWVAVIWYEGSNKYYADSVKGRFTISRDNSKNTLYLQMNSLRAEDTAVYYCARGGSMVRGDYYYGMDVWGQGTTVTVSSASTKGPSVFPLAPSSKSTSGGTAALGCLVKDYFPEPVTVSWNSGALTSGVHTFPAVLQSSGLYSLSSVVTVPSSSLGTQTYICNVNHKPSNTKVDKKV[human IgG1 Fc not written out] light: AIQLTQSPSSLSASVGDRVTITCRASQGISSALAWYQQKPGKAPKLLIYDASSLESGVPSRFSGSGSGTDFTLTISSLQPEDFATYYCQQFNSYPYTFGQGTKLEIKRTVAAPSVFIFPPSDEQLKSGTASVVCLLNNFYPREAKVQWKVDNALQSGNSQESVTEQDSKDSTYSLSSTLTLSKADYEKHKVYACEVTHQGLSSPVTKSFNRGEC | 7.3 nM | 20.1 nM | 10.8% | 27%
